{
  "source": "patent US7410949B2",
  "about": "“Neuropeptide-2 receptor (Y-2R) agonists and uses thereof” (Hoffmann-La Roche Inc., priority 2005, dated 2008)",
  "origin": "cited, not measured here",
  "test_system": "rats",
  "settings": "cited from earlier work",
  "data": [
    {"smiles": "CC[C@H](C)[C@H](N)C(=O)N[C@@H](CCCCN)C(=O)N1CCC[C@H]1C(=O)N[C@@H](CCC(=O)O)C(=O)N[C@@H](C)C(=O)N1CCC[C@H]1C(=O)NCC(=O)N[C@@H](CCC(=O)O)C(=O)N[C@@H](CC(=O)O)C(=O)N[C@@H](C)C(=O)N[C@@H](CO)C(=O)N1CCC[C@H]1C(=O)N[C@@H](CCC(=O)O)C(=O)N[C@@H](CCC(=O)O)C(=O)N[C@@H](CC(C)C)C(=O)N[C@@H](CC(N)=O)C(=O)N[C@@H](CCCNC(=N)N)C(=O)N[C@@H](Cc1ccc(O)cc1)C(=O)N[C@@H](Cc1ccc(O)cc1)C(=O)N[C@@H](C)C(=O)N[C@@H](CO)C(=O)N[C@@H](CC(C)C)C(=O)N[C@@H](CCCNC(=N)N)C(=O)N[C@@H](Cc1c[nH]cn1)C(=O)N[C@@H](Cc1ccc(O)cc1)C(=O)N[C@@H](CC(C)C)C(=O)N[C@@H](CC(N)=O)C(=O)N[C@@H](CC(C)C)C(=O)N[C@H](C(=O)N[C@H](C(=O)N[C@@H](CCCNC(=N)N)C(=O)N[C@@H](CCC(N)=O)C(=O)N[C@@H](CCCNC(=N)N)C(=O)N[C@@H](Cc1ccc(O)cc1)C(N)=O)[C@@H](C)O)C(C)C", "note": "[Example 4]", "values": [
      {"measurement": "feeding", "setting": "Intra-arcuate (IC) or Intra-peritoneal (IP) injection", "value": "reduced feeding"},
      {"measurement": "body weight gain", "setting": "chronic treatment", "value": "reduced body weight gain"}
    ]}
  ]
}
